Legend:
MCF-7S8 cells = MCF-7S8 cells (Homo sapiens, UniProt P08069); assay: cell growth/density, mitochondrial activity assay (WST-1), MCF-7S8; type: cell-based; details: for IC50 in MCF-7S8: alone: second value of the cell, basal level in 0.5% FCS, unit not given; for IC50 in MCF-7S8: in presence of IGF-1: first value of the cell, 10 nM IGF-1, cells in words only = effect as reported, 72 hours, no unit in head (SW480 column: M)
Experimental: For cell growth/density studies, a mitochondrial activity assay was used, as exemplified by the following. Cells (SW480, MCF-7S8) were propagated in complete medium (DME: F12, 10% FCS (SW 480) or 5% FCS (MCF-7S8, P/S)), trypsinized, and seeded in 96 well plates as 10,000 cells/well in medium with 0.5% FCS. All wells in the periphery were omitted and only filled with medium. […] All treatments are made in triplicates. […] Treatment was continued for 48 hours (SW480 cells) or 72 hours (MCF-7S8 cells) before quantification of the cell density. Media was exchanged each day. Media and peptides were diluted in DMSO. When measuring cell density, the volume of each well was adjusted to […] Pre-diluted WST-1 (1 ml+1.5 ml DME:F12) was added as 25 μL to each well including background samples. Three wells with media only served as background controls. The cells were incubated for 90 min protected against light in an incubator.

The chains behind the UniProt entries cited, without tags or fusion partners. Residues count along the entry.
UniProt P08069, 31-736: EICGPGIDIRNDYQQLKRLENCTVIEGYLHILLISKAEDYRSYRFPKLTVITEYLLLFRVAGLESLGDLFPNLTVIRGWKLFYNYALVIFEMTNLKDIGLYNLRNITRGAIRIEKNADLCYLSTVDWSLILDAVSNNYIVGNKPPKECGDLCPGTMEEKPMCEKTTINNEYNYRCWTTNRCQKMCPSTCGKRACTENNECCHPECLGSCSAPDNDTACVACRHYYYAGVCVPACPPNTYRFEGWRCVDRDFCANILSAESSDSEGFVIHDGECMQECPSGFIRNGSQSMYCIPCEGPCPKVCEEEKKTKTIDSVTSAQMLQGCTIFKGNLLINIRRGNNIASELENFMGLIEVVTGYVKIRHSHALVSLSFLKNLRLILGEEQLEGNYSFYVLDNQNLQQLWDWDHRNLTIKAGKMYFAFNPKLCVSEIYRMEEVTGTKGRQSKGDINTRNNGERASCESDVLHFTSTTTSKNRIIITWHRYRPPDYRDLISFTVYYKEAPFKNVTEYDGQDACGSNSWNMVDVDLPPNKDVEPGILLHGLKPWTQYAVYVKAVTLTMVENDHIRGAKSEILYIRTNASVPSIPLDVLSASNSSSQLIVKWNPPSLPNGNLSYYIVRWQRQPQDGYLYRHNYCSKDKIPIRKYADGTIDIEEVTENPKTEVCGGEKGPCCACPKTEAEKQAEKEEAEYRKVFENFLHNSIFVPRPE
UniProt P08069, 741-1367 limits assumed: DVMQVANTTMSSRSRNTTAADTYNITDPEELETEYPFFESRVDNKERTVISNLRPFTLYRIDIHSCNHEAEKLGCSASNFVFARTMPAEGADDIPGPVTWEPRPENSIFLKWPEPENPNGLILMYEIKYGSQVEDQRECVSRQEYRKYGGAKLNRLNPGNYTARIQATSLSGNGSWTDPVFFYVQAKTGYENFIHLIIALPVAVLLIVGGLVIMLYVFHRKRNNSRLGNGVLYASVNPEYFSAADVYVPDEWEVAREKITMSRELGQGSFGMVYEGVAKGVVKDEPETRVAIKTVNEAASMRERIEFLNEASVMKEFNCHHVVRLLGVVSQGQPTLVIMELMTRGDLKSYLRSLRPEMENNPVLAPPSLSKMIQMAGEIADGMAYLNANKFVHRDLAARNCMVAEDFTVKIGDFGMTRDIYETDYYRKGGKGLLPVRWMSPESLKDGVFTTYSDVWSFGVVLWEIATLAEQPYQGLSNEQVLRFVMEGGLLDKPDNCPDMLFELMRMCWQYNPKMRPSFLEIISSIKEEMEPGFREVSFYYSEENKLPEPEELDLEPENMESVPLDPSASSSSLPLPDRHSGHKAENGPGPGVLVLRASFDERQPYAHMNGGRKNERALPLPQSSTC

[1] = peptide stability (method not described)
purified HIGF-1R = biological target: T1, purified HIGF-1R (Homo sapiens, UniProt P08069); assay: IGF-1R activation kinase assay; type: biochemical; details: IGF-1R kinase activation by 10 nM IGF-1
T1 construct: HIGF-1R was purified from a cell culture of BHK cells stably transfected with IGF-1R cDNA; made in house; host or cells: BHK cells stably transfected with IGF-1R cDNA
Experimental: For determining IGF-1R activation with test peptides, a kinase assay, generally using the following conditions was employed. A solution of each test peptide in kinase buffer (Hepes 100 mM (pH 8.0), MgCl2 8 mM, MnCl2 6 mM, Triton X100 0.1% v/v, BSA 0.2% w/v, 4 μg/ml IRS-1 peptide (Biotin-[…] in PBS+1 mg/ml)) was prepared. Samples were mixed in a microtiter plate in triplicate. 50 μl 2× kinase buffer was added into each well. […] Volume was adjusted to 88 μL, before addition of purified HIGF-1R (2 μl/well). Plates were shaken and incubated for 50 min. at room temperature (RT). DTT and 10 μl/well ATP were added and the wells incubated for 10 min. before stopping the reaction by adding 10 μl stop-buffer (50 mM EDTA (pH 8.0))/well and shaking. The samples were then transferred to streptavidin coated plates and incubated for 1 hour at RT. The coated plates were aspirated and washed 3 times with TBS-T. […] P-tyr Ab-PO (Phosphotyrosine-RC20:HRPO (1:1000) in TBS-T) was added and each plate was incubated for 30 min at RT. The plates were aspirated and washed 3 times with TBS-T. 100 μl TMB-One-substrate (Kem-En-Tec Diagnostics A/S—Denmark) (preheated to RT) was then added and the plates further incubated for approximately 20 min at RT. This reaction was stopped by adding 10 μl H2SO4 and the plates were read in an ELISA-reader at […] within 5-10 min. thereafter. Table 7 includes additional results from such experiments.
[…]. […] […].

Human IGF-1R (HIGF-1R) = biological target: T2, Human IGF-1R (HIGF-1R) (Homo sapiens, UniProt P08069); assay: IGF-1R affinity study, 125I-IGF-1 competition, PEG precipitation (PEG-assay); type: binding; details: read-out: HIGFIR affinity (PEG-assay)
T2 construct: HIGF-1R was purified from a cell culture of BHK cells stably transfected with IGF-1R cDNA; made in house; host or cells: BHK cells stably transfected with IGF-1R cDNA
Experimental: IGF-1R affinity studies were generally performed as follows. […] HIGF-1R was purified from a cell culture of BHK cells stably transfected with IGF-1R cDNA. The day before harvest cells were moved to serum free conditions and before harvest the cells were rinsed with and ice cold PBS solution. The cells were solubilized in cold lysis buffer (4 ml lysis buffer/1×10^8 cells); vortexed vigorously to lysis in lysis buffer (50 mM Hepes (pH 8.0); 150 mM NaCl; 1% Triton X-100; 2 mM EDTA; 10 μg/mlaprotinin; 0.5 mM PEFABLOC (Roche)); and the lysate centrifuged at 4° C., 20000 rpm, for 15 minutes. The HIGF-1R portion was absorbed to WGA-agarose beads and subjected to chromatography purification (Pharmacia biotech No 17-0760-01) (column washed with 20× column volumes wash buffer −50 mM Hepes (pH 8.0); 150 mM NaCl; 0.1% Triton X-100; 0.5 mM PEFABLOC (Roche)). The HIGF-1R portion was then eluted with 0.5 M n-Acetyl Glycosamine (NAG), 10% Glycerol in elution buffer (50 mM Hepes (pH 8.0); 150 mM NaCl; 0.1% Triton X-100; 0.5 mM PEFABLOC (Roche); 0.5 M n-acetyl glucosamine; 10% glycerol). […] After equilibration for 2 days at 4° C., each sample (200 μl) typically was precipitated by addition of 400 μl 25% PEG 6000, centrifuged, washed with 1 ml 15% PEG 6000, and counted in a gamma-counter. In some cases, human insulin receptor (HIR) affinity for select test peptides was similarly measured.

Sequence | IC50 in MCF-7S8: alone (MCF-7S8 cells) | stability compared with parent peptide [1] | IC50 in kinase assay (M) (purified HIGF-1R) | Kd (Human IGF-1R (HIGF-1R)) [nM] | IC50 (purified HIGF-1R) [nM] | IC50 in MCF-7S8: in presence of IGF-1 (MCF-7S8 cells)
SFYSCLESLVAGPAEKSRGQWEGCRK [Peptide F259] | no effect | greater stability than F250 |  |  |  | 
SLLSCFESYWQGPAEKSRGQVEGCRK [Peptide F365] |  |  | No effect |  |  | 
SFYSCLESLVAGPAEKSRGQWEGCR [Peptide F258] |  | greater stability |  |  |  | 
EFGTGYGGDGGGYWSGYEWLAW [Peptide F207] | no effect |  |  | > 20000 | 200 | Agonistic
EGRVDDAFYENFERQLGE [Peptide F213] | no effect |  | No effect | 800 |  | No effect

From US20110039779A1, “IGF-1R BINDING PROTEINS AND ANTAGONISTS” (priority 2007, published 2011)
